Substitutions are numbered along the chain they refer to.

The values below come from patent US20120201826A1 (NOV IMMUNE S A, published 2012).

Assay [1] addresses T1, mouse RANTES mutant [S16A/L17R/A18P], biotinylated in vivo (mouse, UniProt P30882 24-91, biotinylated in vivo at the AviTag).
T1 construct: also called [S16A/L17R/A18P] mutant; not shown: AviTag biotinylation site at the C-terminus
Nature of the assay: ELISA: biotinylated chemokine captured on Streptawell plate, 1E4 at 1 µg/ml, goat anti-human IgG Fc-gamma-HRP, TMB, OD450. How it is done:
(§1) In an ELISA, the antibody 1E4 binds with equivalent apparent affinity to both human and cynomolgus RANTES (FIG. 5). In order to identify residues potentially required on huRANTES for binding to 1E4, the RANTES protein sequences from several species were aligned as shown in FIG. 6. In the alignment, residues that are conserved between the human and cynomolgus sequences and that are different in mouse and rat RANTES to which 1E4 is unable to bind were analyzed to identify the following amino acids: A16, R17, P18, G32, P37, R59 and S64. Three mutants of mouse RANTES were generated by site directed mutagenesis in order to introduce the human residues at those positions: [S16A/L17R/A18P]; [S32G/L37P] and [Q59R/Y64S]. These mutant forms of mouse RANTES were expressed and biotinylated in vivo as described in Example 1. These variant of mouse RANTES were captured in streptavidin coated plates (Streptawell, Roche). The coating of the biotinylated chemokine was confirmed using a anti-mouse RANTES polyclonal antibody (R&D Systems). It was then tested whether the introduction of these residues could restore 1E4 binding to mouse RANTES. Briefly, mouse RANTES, human RANTES as well as three mutant forms of mouse RANTES and control supernatants were captured in Streptawell plates (Roche) for 30 minutes at room temperature. After washing, antibody 1E4 was added at a concentration of 1 μg/ml in 1% BSA-PBS and incubated for 1 hour at room temperature. The plate was washed and incubated with a goat anti-human IgG Fcγ-specific antibody coupled to horse radish peroxidase (Jackson). […] The plates were read at 450 nm.

In assay [2] the target is T2, mouse RANTES mutant [S32G/L37P], biotinylated in vivo (mouse, UniProt P30882 24-91, biotinylated in vivo at the AviTag).
T2 construct: not shown: AviTag biotinylation site at the C-terminus
The assay is described as above. The protocol:
as §1

The target of assay [3] is T3, mouse RANTES mutant [Q59R/Y64S], biotinylated in vivo (mouse, UniProt P30882 24-91, biotinylated in vivo at the AviTag).
T3 construct: not shown: AviTag biotinylation site at the C-terminus
The description is as above. How it is done:
as §1

The target in assay [4] is T4, recombinant human RANTES (huRANTES, Peprotech) (human, UniProt P13501 24-91).
T4 construct: Bought protein (Peprotech); also called rhuRANTES; CCL5
T4 sequence: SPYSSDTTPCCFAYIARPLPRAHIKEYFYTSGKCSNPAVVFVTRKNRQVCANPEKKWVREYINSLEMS
The assay is described as follows: SPR (Biacore 2000), 1E4 captured on anti-human IgG, chemokine as analyte, 25 C, 1:1 Langmuir fit. The protocol: (§2) The affinity and binding kinetics of 1E4 on human RANTES and cynomolgus RANTES were characterized on a Biacore 2000 instrument (Biacore AB, Uppsala, Sweden). 433 RU (response unit) of a donkey anti-human IgG polyclonal antibody were immobilized by EDC/NHS chemistry on a C1 Biacore chip. This surface was used to capture antibody 1E4. The surface was regenerated after each cycle by injection of 10 mM glycine pH=2 at 30 μL/min, for 60s followed by 1 min. of stabilization time in HBS-EP buffer.
(§3) Binding was measured by passing either huRANTES (Peprotech, Rocky Hill NJ) or a NusA-fusion proteins of human RANTES (NusA-huRANTES) and Cynomolgus RANTES (NusA-cynoRANTES) at various concentrations. All proteins were diluted in the running buffer HBS-EP buffer (Biacore AB, Uppsala, Sweden). Injection was performed at 75 μl/min for 3 min. followed by 15 min. of dissociation time and the temperature was set at 25° C. […] Very similar values were obtained using huRANTES or the NusA-huRANTES fusion, but better response signals were obtained with the fusion protein due to its larger size that induces a better response on the Biacore.

Assay [5] addresses T5, NusA-cynoRANTES fusion protein (cynomolgus monkey, UniProt Q8HYQ1 24-91 (rhesus entry), biotinylated in vivo at the AviTag).
T5 construct: also called cynomolgus RANTES; not shown: NusA fusion partner of expression plasmid pET43 (Novagen); Factor X protease cleavage site at the C-terminus of NusA; AviTag biotinylation site at the C-terminus of the chemokine
T5 sequence: T4 sequence with Y3H, S4A
The description is as above. How it is done:
as §2, §3

Assay [6] addresses T6, NusA-huRANTES fusion protein (human, UniProt P13501 24-91, biotinylated in vivo at the AviTag).
T6 construct: GenBank M21121 is printed for the human RANTES gene; also called NusA-Rantes; not shown: NusA fusion partner of expression plasmid pET43 (Novagen); Factor X protease cleavage site at the C-terminus of NusA; AviTag biotinylation site at the C-terminus of the chemokine
T6 sequence: T4 sequence
Described as above. The protocol:
as §2, §3

B1: 1E4 antibody, IgG1 format (antibody, V domains shown)
VH: QVQLVQSGAEVKKPGASVKVSCKVSGYTLTEFAMHWVRQAPGKGLEWMGGFVPEDGETIYAQKFQGRVTMTEDTSTDTAYMELSSLRSEDTAVYYCATDPLYEGSFSVWGQGTTVTVSS
VL: SYVLTQPPSVSVAPGQTARITCGGNNIESKSVHWYQQKPGQAPVLVVYDDSDRPSGIPERFSGSNSGNTATLTISRVEAGDEADYYCQVWDSNTDHWVFGGGTKLTVLG
notes: also called antibody 1E4 purified from CHO supernatant
For B1, the binding result is reported as “binds” in assay [1], “no binding (tested: 1 µg/ml)” in assay [2] and “no binding (tested: 1 µg/ml)” in assay [3]. Besides, the koff (as a rule, the first-order rate constant of dissociation) amounted to 0.00244 s⁻¹ in assay [4], 0.00122 s⁻¹ in assay [5] and 0.000835 s⁻¹ in assay [6]. In addition, the kon (commonly the rate constant with which the complex forms) amounted to 5.36e+06 M⁻¹ s⁻¹ in assay [4], 5.46e+06 M⁻¹ s⁻¹ in assay [5] and 1.87e+06 M⁻¹ s⁻¹ in assay [6].
